# Laboratory results reported in US20120015925A1, “NOVEL BENZOTHIAZEPINE AND BENZOTHIEPINE COMPOUNDS” (ASAHI KASEI PHARMA CORPORATION, priority 2004, published 2012).
# Protein sequences, listed by entry. Tags and fused reporters are not part of them.
# UniProt Q12908, whole entry: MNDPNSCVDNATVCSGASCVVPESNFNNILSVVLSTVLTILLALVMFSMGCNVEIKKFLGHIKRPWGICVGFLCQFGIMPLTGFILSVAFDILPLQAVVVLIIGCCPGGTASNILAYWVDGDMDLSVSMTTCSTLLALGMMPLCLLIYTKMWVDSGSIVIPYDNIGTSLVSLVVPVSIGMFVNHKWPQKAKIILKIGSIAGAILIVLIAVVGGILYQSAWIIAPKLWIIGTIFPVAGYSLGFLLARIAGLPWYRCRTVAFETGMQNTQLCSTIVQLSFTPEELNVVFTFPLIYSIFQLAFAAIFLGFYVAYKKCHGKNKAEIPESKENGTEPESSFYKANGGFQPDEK
# Legend:
# [1] = system: rats dosed cholic acid; experiment: Lowering effect on bile acid concentrations in portal vein blood in rats dosed cholic acid
# [2] = system: Caco-2 cell; experiment: Gastrointestinal toxicity: cytotoxicity against Caco-2 cell (LDH activity); conditions: 2 hours, LDH activity in medium relative to cell lysis agent = 100%
# [3] = target: human IBAT (Homo sapiens, UniProt Q12908); experiment: In vitro assay using Cos 7 cells, transiently expressed human IBAT; assay type: cell-based; conditions: read-out: Cos 7/human IBAT IC50; [3H]-taurocholate 8 μM uptake, 37° C., 60 minutes
# [4] = 0.3 mg/kg oral with cholic acid 200 mg/kg, portal vein serum total bile acid 2 hours after, control = 100%, surfactant HCO-60 (##)
# [5] = 0.1 mg/kg oral, surfactant HCO-60 0.1%, cholic acid 200 mg/kg, portal vein blood 2 hours after administration
compound,measurement,setting,value
CCCCC1(CCCC)CS(=O)(=O)c2ccc(N(C)C)cc2C(c2cccc(NC(=S)Nc3ccc(CC[N+]45CCC(CC4)CC5)cc3)c2)N1 (centres unmarked),BILE ACID REDUCTION RATE (%) IN RAT MODEL WITH CHOLIC ACID LOADING,[1]; [4],40%
same,CELL TOXICITY AGAINST Caco2 3 μM,[2],<1%
same,CELL TOXICITY AGAINST Caco2 10 μM,[2],<1%
same,CELL TOXICITY AGAINST Caco2 30 μM,[2],<1%
CCCCC1(CCCC)CS(=O)(=O)c2ccc(N(C)C)cc2C(c2cccc(NC(=S)Nc3cccc(C[N+]4(Cc5ccccc5)CCC(CO)CC4)c3)c2)N1 (centres unmarked),BILE ACID REDUCTION RATE (%) IN RAT MODEL WITH CHOLIC ACID LOADING,[1]; [5],17%
CCCCC1(CCCC)CS(=O)(=O)c2ccc(N(C)C)cc2C(c2cccc(NC(=S)Nc3cccc(C[N+]4(Cc5ccccc5)CCC(CCO)CC4)c3)c2)N1 (centres unmarked),BILE ACID REDUCTION RATE (%) IN RAT MODEL WITH CHOLIC ACID LOADING,[1]; [5],22%
CCCCC1(CCCC)CS(=O)(=O)c2ccc(N(C)C)cc2C(c2cccc(NC(=S)Nc3ccc(CC[N+](C)(C)Cc4ccccc4)cc3)c2)N1 (centres unmarked),BILE ACID REDUCTION RATE (%) IN RAT MODEL WITH CHOLIC ACID LOADING,[1]; [4],39%
same,CELL TOXICITY AGAINST Caco2 3 μM,[2],<1%
same,CELL TOXICITY AGAINST Caco2 10 μM,[2],<1%
same,CELL TOXICITY AGAINST Caco2 30 μM,[2],<1%
CCCCC1(CCCC)CS(=O)(=O)c2ccc(N(C)C)cc2C(c2cccc(NC(=S)Nc3cccc(C[N+]4(Cc5ccccc5)CCC(NC(=O)OC(C)(C)C)C4)c3)c2)N1 (centres unmarked),IC50,[3],43 nM
CCCCC1(CCCC)CS(=O)(=O)c2ccc(N(C)C)cc2C(c2cccc(NC(=S)Nc3cccc(C[N+]4(Cc5ccccc5)CCC(NC(C)=O)C4)c3)c2)N1 (centres unmarked),IC50,[3],61 nM
CCCCC1(CCCC)CS(=O)(=O)c2ccc(N(C)C)cc2C(c2cccc(NC(=S)NCCCCC[N+](C)(C)Cc3ccccc3)c2)N1 (centres unmarked),BILE ACID REDUCTION RATE (%) IN RAT MODEL WITH CHOLIC ACID LOADING,[1]; [5],18%
CCCCC1(CCCC)CS(=O)(=O)c2ccc(N(C)C)cc2C(c2cccc(NC(=S)Nc3cccc(C[N+]45CCC(CC4)CC5)c3)c2)N1 (centres unmarked),BILE ACID REDUCTION RATE (%) IN RAT MODEL WITH CHOLIC ACID LOADING,[1]; [5],37%
